Literature values, collected in patent US20180318279A1 (priority 2015, published 2018).

Tested on: inflamed paw; Mu opioid receptors
Conditions: in vivo, cited from earlier work

**Q.** Which paw affected (sc) does the source give for CN1CC[C@]23c4c5ccc(O)c4O[C@H]2[C@@H](O)C=C[C@H]3[C@H]1C5 [morphine] here?
**A.** Its paw affected is “affected both the inflamed and non-inflamed paw”.

**Q.** What about the “reversal of effect by naltrexone and methylnaltrexone” value of the same molecule?
**A.** The value was “reversed by naltrexone but not methylnaltrexone”.
